Ab-14 heavy chain CDR variants: yeast mating affinities

All variants were tested on one target, the spike HR2 peptide PDVDLGDISGINAS (SARS-CoV-2).

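The parent was found by panning a naive human phage display library on the peptide. These sequences belong to a second round, designed from the earlier measurements on random variants of the parent. Several design methods are mixed in this list. Affinity was read by AlphaSeq, a pooled yeast mating assay with surface-displayed partners. The frequency of each diploid, read from paired DNA barcodes, reflects how well the two displayed proteins bind. The ratio of observed to expected reads was calibrated, replicate by replicate, on BCL2-family standards whose Kd was known from biolayer interferometry. Mating was done six times.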

Ab-14 is the parent antibody, in scFv form: VH, then three GGGGS repeats, then VL. The light chain is unchanged in all variants.
VH: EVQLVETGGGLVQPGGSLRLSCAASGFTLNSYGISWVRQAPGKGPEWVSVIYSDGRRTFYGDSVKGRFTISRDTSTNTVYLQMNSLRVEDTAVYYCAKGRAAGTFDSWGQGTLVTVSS
VL: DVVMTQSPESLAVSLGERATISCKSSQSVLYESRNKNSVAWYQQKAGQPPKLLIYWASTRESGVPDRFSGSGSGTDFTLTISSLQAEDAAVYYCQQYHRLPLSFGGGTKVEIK

The parent's heavy chain CDRs are GFTLNSYGIS, VIYSDGRRTFYGDSVK, GRAAGTFDS; each variant's own CDRs replace them letter for letter. Affinities are written as log10 Kd with Kd in nM; a lower number is a better binder. Averages over replicates are reported, and they cover detected replicates only. "not detected" means that the variant was in the library but no mating with the target was seen in any replicate; the authors take this as a sign of poor binding, and no number exists. As a blank, each scFv also met three strains without target: over all heavy chain designs, 1% of these pairings were detected, typically at 2.08 and seldom below 0.84. The control count says in how many pairings with the empty strains this scFv gave a signal.

CDR-H1 | CDR-H2 | CDR-H3 | log10 Kd (nM), mean | detected | signal with controls
GFDLNSYGIS | VIYSDGRRTFYGDSVK | GWAAGTFDL | 1.25 | 6/6 | 0/18
GFELNSYGIS | VIYADGRRTFYGDDVK | GKAAGTFDS | -0.14 | 6/6 | 1/18
GFDLNEYGIS | VIYADGVRTAYGDSVK | GTNAGTFDQ | -0.45 | 6/6 | 0/18
GFKLNDYGIS | VIYSDGRRTFYIDSVK | GRLAGTFDS | 1.14 | 5/6 | 0/18
GFNLDEYGIS | VIYADGRRTAYADSVK | GEVAGTFDT | -0.03 | 6/6 | 0/18
GFSLNDYGIS | VIYSDGRRTFYDDSVK | GRTAGTFDS | -0.45 | 6/6 | 1/18
GFTLLSYGIS | VIYSDGRRTFYSDSVK | GQAAGTFDS | not detected | 0/6 | 0/18
GFDLDEYGIS | VIYADGRRTFYADSVK | GQNAGTFDV | 0.55 | 6/6 | 1/18
GFDLNEYGIS | VIYADGMRTAYTDSVK | GANAGTFDV | -0.62 | 6/6 | 0/18
GFDIQEYGIS | VIYADGMRVAYTNSVK | GTQSGSNII | not detected | 0/6 | 0/18
GFDLNEYGIS | VIYADGQRTFYADSVK | GQLAGTFSV | -0.74 | 6/6 | 0/18
GFDLNSYGIS | VIYSDGRRTFYGDSVK | GTTAGTFDS | -0.33 | 6/6 | 0/18
GFDIGEYGIS | VIYADGQRTAYKPTVK | GNNTGLVFI | 3.49 | 1/6 | 0/18
GTTLNSYGIS | VIYSDGRRTFYLDSVK | GRAAGCFDH | not detected | 0/6 | 0/18
GFTLNEYGIS | VIYSDGRRTFYGDSVK | GKEAGTFDT | -0.45 | 6/6 | 0/18
GFKLDEYGIS | VIYADGQRKSYADSVK | GQINVYVTA | not detected | 0/6 | 0/18
GFDLNEYGIS | VIYADGMRTAYTDSVK | GETAGTFDV | -0.11 | 6/6 | 2/18
GFTLNDYGIS | VIYSDGRRTMYIDSVK | GRAAGQFDS | not detected | 0/6 | 1/18
GFDLNEYGIS | VIYADGVRTAYSDSVK | GEVAGTFDM | 0.17 | 6/6 | 1/18
GFTLNDYGIS | VIYSDGRRTQYIDIVK | GRNAGTFDS | 0.95 | 1/6 | 0/18
GFDLNEYGIS | VIYSDGRRTFYGDAVK | GEAAGTFDS | 0.62 | 6/6 | 0/18
GFTLNEYGIS | VIYSDGRRTFYGDSVK | GHAAGTFDS | 1.54 | 2/6 | 0/18
GFDLNEYGIS | VIYADGQRTAYADSVK | GEAAGTFDS | -0.30 | 6/6 | 0/18
GFTLNSYGIS | VIYSDGRRTFYSDSVK | GQNAGTFDS | not detected | 0/6 | 0/18
GFSLNEYGIS | VIYSDGRRTFYHDSVK | GTAAGTFDS | -0.08 | 6/6 | 0/18
GFQLNEYGIS | VIYSDGRRTFYGDQVK | GQTAGTFDE | 0.67 | 6/6 | 1/18
GFDLDEYGIS | VIYADGRRTFYADSVK | GEQAGTFDV | -0.18 | 6/6 | 0/18
GFTLNSYGIS | VIYSDGKRTIYGDSVK | GRHAGTMPS | 2.05 | 1/6 | 0/18
GFTLNEYGIS | VIYSDGRRTFYTDSVK | GREAGTFIS | not detected | 0/6 | 0/18
GFTLNDYGIS | VIYSDGRRTQYIDSVK | GRAASTFDS | not detected | 0/6 | 0/18
GFTLNDYGIS | VIYSDGRRTFYADSVK | GRAAGTFDE | 0.38 | 6/6 | 0/18
GFDLNSYGIS | VIYSDGKRTFYADKVK | GRTAGTFDS | 1.26 | 1/6 | 0/18
GFTLNSYGLS | VIYSDGRNSFYDDSVK | GQLEGTFDS | not detected | 0/6 | 1/18
GFTLNEYGIS | VIYSDGRRQFYTDSVK | GRFAGTFDS | not detected | 0/6 | 0/18
GFTLNMYGIS | VIYSDGKRTFYGDSVK | GRTAGTFDS | 1.29 | 3/6 | 0/18
DFTLNEYGIS | VIYSDGRRTFYGDSVK | GRAAVTFDQ | not detected | 0/6 | 0/18
GFDLDEYGIS | VIYADGMRTAYSDSVK | GQNAGTFDI | -0.10 | 6/6 | 1/18
GFELNSYGIS | VIYSDGRRTFYQDSVK | GRTAGTFDQ | 0.14 | 6/6 | 0/18
GFDLNEYGIS | VIYADGQRKVYADSVK | GNVAGTFDV | -0.45 | 6/6 | 0/18
GFDLNSYGIS | VIYSDGRRTFYGDSVK | GREAGTFES | -0.14 | 6/6 | 0/18
GFTGNEYGIS | VIYSDGRRTFYGDSVK | GRAAVTFDQ | 1.69 | 1/6 | 0/18
GFTLNEYGIS | VIYSDGRRTFYTDSVK | GRFAGTFVS | not detected | 0/6 | 0/18
GFDLNSYGIS | VIYSDGRRTFYADRVK | GNAAGTFDS | 1.54 | 6/6 | 0/18
GFTLNSYGIS | VILSDGCRTAYGDSVK | GRAAGTFDS | not detected | 0/6 | 2/18
GFTLNSYGIS | VIYADGRRTFYGDSVK | GEAAGTFDV | 0.05 | 6/6 | 0/18
GFSLNEYGIS | VIYSDGRRTMYGDSVK | GRNAGTFDS | -0.15 | 6/6 | 0/18
GFTLNSYGIS | VIYADGRRTFYGDSVK | GQAAGTFDD | 0.78 | 6/6 | 0/18
GFSLNEYGIS | VIYSDGRRTFYCDSVK | GRTAGTFDS | 0.34 | 6/6 | 0/18
GFDLDEYGIS | VIYADGMRTAYADSVK | GTNAGTFDM | 0.42 | 6/6 | 0/18
GFELNTYGIS | VIYSDGRRTFYGDSVK | GEAAGTFDS | not detected | 0/6 | 0/18
GFNLDEYGIS | VIYADGIRTVYADDVK | GGLKMHSLT | not detected | 0/6 | 0/18
GFQLNTYGIS | VIYSDGRRTFYADQVK | GQAAGTFDS | 1.56 | 5/6 | 0/18
GFTLNNYGIS | VIYSDGRRTFYEDSVK | GLAAGTFDS | not detected | 0/6 | 0/18
GFSLNDYGIS | VIYSDGRRTFYGDSVK | GRAAWTFDS | not detected | 0/6 | 0/18
GFTLDSYGIS | VIYSDGRRTFYADSVK | GRAAGTFDQ | 0.54 | 6/6 | 0/18
GFDLNSYGIS | VIYSDGRRTFYDDSVK | GQKAGTFDS | not detected | 0/6 | 0/18
GFGLNEYGIS | VIYSDGRRTFYGDSVK | GQTAGTFDS | 0.11 | 6/6 | 0/18
GFVLNDYGIS | VIYSDGRRTFYGDSVK | GRMAGTFDS | 0.90 | 6/6 | 1/18
GFDLNEYGIS | VIYADGRRTFYSDSVK | GHVAGTFIQ | -0.31 | 6/6 | 0/18
GFTLNEYGIS | VMYKHGRRTFYTDSVK | GRFAGTFDS | not detected | 0/6 | 1/18
GFDLDEYGIS | VIYADGMRTVYADSVK | GNQAGTFDV | -0.42 | 6/6 | 0/18
GFTLDSYGIS | VIYSDGRRTFYDDSVK | GQLAGTSDS | not detected | 0/6 | 0/18
GFQLNEYGIS | VIYSDGRGTFYGDSVK | DRAAVTFDQ | not detected | 0/6 | 0/18

4 of these entries, quoted again:

CDR-H1 | CDR-H2 | CDR-H3 | log10 Kd (nM), mean | detected | signal with controls
GFTLNSYGIS | VIYADGRRTFYGDSVK | GEAAGTFDV | 0.05 | 6/6 | 0/18
GFDIGEYGIS | VIYADGQRTAYKPTVK | GNNTGLVFI | 3.49 | 1/6 | 0/18
GFDLNEYGIS | VIYADGVRTAYSDSVK | GEVAGTFDM | 0.17 | 6/6 | 1/18
GFELNSYGIS | VIYADGRRTFYGDDVK | GKAAGTFDS | -0.14 | 6/6 | 1/18

A sequence measured in both rounds can read differently, since the two assays cover different ranges. In the paper, a design with two or fewer of six values counts as a poor binder.

From the AlphaSeq antibody data of Li et al. 2023 (doi:10.1038/s41467-023-39022-2), copy in the FLAb collection.